Sequences of proteins named here, by UniProt entry; tags and fusion partners are left off. Residues count along the entry.
UniProt Q16552, 20-155 limits assumed: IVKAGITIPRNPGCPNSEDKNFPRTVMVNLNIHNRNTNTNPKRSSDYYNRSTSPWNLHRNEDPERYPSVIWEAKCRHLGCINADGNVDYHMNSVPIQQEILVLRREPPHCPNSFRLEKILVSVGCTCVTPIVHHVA
UniProt Q16552, 24-155 limits assumed: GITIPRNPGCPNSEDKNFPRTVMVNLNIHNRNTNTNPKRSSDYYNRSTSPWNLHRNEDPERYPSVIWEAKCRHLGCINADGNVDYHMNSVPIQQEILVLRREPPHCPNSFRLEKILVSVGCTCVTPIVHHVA

According to US9284283B2, “Macrocyclic compounds for modulating IL-17” (ENSEMBLE THERAPEUTICS CORPORATION, priority 2012, dated 2016):

What was measured:
[1] = system: IL-17A induced secretion of IL-6 in primary human RASF cells; assay: Inhibition of IL17A induced secretion of IL6 in human rheumatoid arthritis synovial fibroblast (RASF) cells; conditions: read-out: RASF
Protocol: This assay was used to determine the extent of inhibition of IL-17A induced secretion of IL-6 in primary human rheumatoid synovial fibroblast (RASF) cells by compounds of the invention. IL-17A is known to stimulate IL-6 production in RASF cells.
Low passage (passage 2-8) Primary human RASF cells (Asterand) were maintained in maintenance medium. Cells were detached from flasks by tryptic digestion and the cell density of the suspension determined. To each well of a 96 well culture plate was added 100 μL of seeding medium containing 50,000 cells/mL and the plate incubated overnight in a humidified 37° C., 5% CO2 incubator. The medium was replaced with fresh assay medium and cells were incubated for additional 5 hours in a humidified 37° C., 5% CO2 incubator prior to stimulation with recombinant human IL-17A (“rhIL-17A”). Prior to addition to cells, rhIL-17A (30 ng/mL) in assay medium was incubated with either DMSO alone, compounds, or anti-IL17 receptor antibody (3 μg/mL) for 1 hour at 37° C. The final concentration of DMSO in all samples was 0.25%. The final concentration of compounds varied from 0.03 μM to 25 μM.
Immediately before stimulation, cells were washed once with fresh assay medium. Then, 100 μL of the test samples was added in triplicate wells and the plates incubated for 20 hours in a humidified 37° C., 5% CO2 incubator. The assay medium from each well was collected and the IL-6 concentration in cell culture supernatants was determined by ELISA either immediately or after storage at −20° C.
A water-soluble tetrazolium salt (WST1) viability assay was immediately performed on the cells after the conditioned medium was collected using a WST1 reagent purchased from Roche. The concentration of IL-6 obtained from ELISA was normalized by the WST1 data.

IL17A = IL17A (Homo sapiens, UniProt Q16552); assay: Surface Plasmon Resonance (SPR) analysis of compound interactions with IL17A; conditions: read-out: SPR; SPR binding to IL17A
Protocol: SPR analysis was carried out with a GE Healthcare (Piscataway, N.J.) Biacore X100 system. Typically, the chip (NTA Biacore Biosensor chip; GE Healthcare BR-1000-34) was first conditioned by injection of 0.35 M EDTA, which also served to remove any immobilized proteins from previous runs. Before immobilization of the recombinant 6-His-tagged IL17, the chip was washed with 0.5 mM nickel chloride in NTA buffer (10 mM HEPES buffer, 0.15 M sodium chloride, 10 μM ethylene diamine tetraacetic acid, 0.005% v/v surfactant P20 (GE Healthcare BR-1000-54)) to form a nickel chelate on the chip. IL17 protein was immobilized onto a NTA chip through its 6-His tag. IL17A was typically injected at 0.25 μM for 60-120 seconds, followed by a stabilization step washing with NTA+0.5% DMSO for 120 seconds or longer.
Five 2-fold or 3-fold serial dilutions of test compound were injected serially onto the chip. […] The rate of refractive index change (RU units/time) and the maximum extend of RU change was measured during the “on” phase of analyte injection, followed by measuring the rate during the “off” phase.
Kinetic parameter fits were conducted using the Biacore SPR Evaluation Program (GE Healthcare) for 1:1 molecular binding fits, after subtracting the baseline average of 2 or more runs in which no analyte was injected. […] Typically, the Kd value calculated through both means agreed within a factor of three. […]

[2] = target: recombinant human IL17a (binding to its receptor IL17R) (Homo sapiens, UniProt Q16552); assay: IL-17 competition ELISA I (IL17a coated, IL17R/Fc binding); conditions: read-out: ELISA I
Protocol: ELISA I: The ability of the compounds to block binding of IL17a to its receptor, IL17R, was analyzed in a competition ELISA format. High binding 96-well plates (Costar #9018) were coated with 20 nM of recombinant human IL17a (R&D Systems #317-ILB) in PBS (0.64 μg/mL), 100 μL/well, for 30 min at 37′C followed by 5 min at 4′C. Plates were then washed in PBST (PBS/0.05% Tween-20) on a plate washer, (Biotech EL-450) blocked with protein-free blocking buffer (Thermo Scientific #37573) in 250 μL/well for 30 min on shaker at room temperature, and then washed again. Compound dilutions prepared in PBST were added into the wells in duplicates followed by the addition of IL17R/Fc (R&D Systems #177-IR) at a final concentration of 12 nM. Plates were then incubated for 30 min at room temperature on the shaker. Wells with no compound served as a positive “no competitor” control, while wells with no IL17R/Fc and no compound served as a blank negative control. After an additional PBST wash, 50 ng/mL HRP-conjugated goat anti-human Fc IgG (KPL #04-10-20) was added to the plate for 30 min at room temperature, followed by PBST wash and addition of SureBlue™ TMB (KPL #52-00-03). After the sufficient color development, the reaction was fixed by the addition of 100 μL/well 0.5 N HCl and absorbance was measured at 450 nm on Biotek plate reader.
Data were processed using BioAssay Enterprise v10.1.4 (CambridgeSoft) software. Linear OD λ450 were plotted against log concentration (x) and fitted to a 4-parameter logistic equation. IC50 was calculated using positive ‘no competitor’ control data as an upper limit and blank control as a lower limit in each assay.

## O=C1CNC(=O)[C@@H](Cc2ccc(NC(=O)[C@H](Cc3ccccc3Cl)NC(=O)Cc3ccccc3)cc2)NC(=O)CC2(CCCC2)CC(=O)N[C@H](C(=O)O)CCCCN1
[1]
  IC50: 1000 to 10000 nM
IL17A
  Kd: < 100 nM
[2]
  IC50: < 100 nM
